# Data published in publication PMC8949525, “Essential Elements and Isoflavonoids in the Prevention of Prostate Cancer” (Nutrients, 2022).
# Read-outs that look alike come from different tables or passages of the source.
# Experiments:
# [1] = tested on: S. typhimurium TA1535/pSK1002
# Description: (§1) The umu-test detects the induction of bacterial DNA-damage response, the SOS system, in the strain S. typhimurium TA1535/pSK1002. The test strain carries pSK1002 plasmid, which contains the fusion of umuC, encoding one of SOS response proteins, and lacZ genes. The expression of β-galactosidase protein is fully controlled by umuC gene.
# (§2) In the present study, the umu-test was performed in the micro-plate format according to the ISO guideline. The β-galactosidase activity was determined by the degree of ONPG cleavage measured as sample absorbance at 420 nm. The extent of SOS system activation was presented as induction ratio (IR), calculated as the ratio of β-galactosidase activity in the presence of the tested compound(s) to that of negative control. […] The optical density at 600 nm was used to describe the bacteria growth. […] Both measurements were performed with Asys UVM340 Hightech microplate spectrophotometer.
# The S9 fraction from rat liver was used for metabolic activation of the tested compounds and the model mutagen. […] The P450 cytochrome level in the isolate was evaluated and the aliquots were stored at −80 °C. The S9 reaction mix was prepared as described by Maron and Ames.
# (§3) In order to the establish anti-genotoxic potential of tested compounds, their effects on the action of two model genotoxic agents, 4NQO without the metabolic activation with rat liver S9 fraction and 2AA with metabolic activation, were evaluated. […] Subsequently, the modulation of 4NQO and 2AA genotoxicity by the isoflavones, the elements and their mixtures in previously used concentrations was investigated.
# [2] = tested on: S. typhimurium TA1535/pSK1002; conditions: −S9, genistein 10 μM and/or mineral added (Table 2), NQO line = genotoxin alone
# Description: as §1, §2, §3
# [3] = 2AA 1 mg/L, +S9, genistein 10 μM and/or mineral added (Table 5), 2AA line = genotoxin alone
# [4] = +S9, isoflavone 10 μM, minerals Zn 0.5, Se 0.03, Cu 0.5, Fe 1.5, Ca 40 μg/mL
# [5] = 2AA 5 mg/L, +S9, genistein 10 μM and/or mineral added (Table 5), 2AA line = genotoxin alone
# [6] = −S9, isoflavone 10 μM, minerals Zn 0.5, Se 0.03, Cu 0.5, Fe 1.5, Ca 40 μg/mL
Compound,"G (growth ratio) [1, 3]","G (growth ratio) [1, 4]",G (growth ratio) ([2]; 4NQO 0.05 mg/L),"G (growth ratio) [1, 5]","G (growth ratio) [1, 6]",G (growth ratio) ([2]; 4NQO […])
"O=c1c(-c2ccc(O)cc2)coc2cc(O)cc(O)c12 [gen, genistein]",1.16 ± 0.17,1.16 ± 0.17,1.01 ± 0.12,,,
"O=S(=O)([O-])[O-].[Cu+2] [Cu, copper(II)/cupric sulphate]",,1.07 ± 0.11,,1.16 ± 0.14,1.09 ± 0.12,
"O=S(=O)([O-])[O-].[Zn+2] [Zn, Zinc sulphate]",1.03 ± 0.08,1.04 ± 0.05,1.01 ± 0.11,1.08 ± 0.05,1.09 ± 0.13,1.01 ± 0.11
"O=S(=O)([O-])[O-].[Fe+2] [Fe, iron(II) sulphate]",,,,1.07 ± 0.07,,1.08 ± 0.10
